Laboratory results taken from patent US20180021294A1, “Ephrin Receptor A2 (EPHA2)-Targeted Docetaxel-Generating Nano-Liposome Compositions” (Merrimack Pharmaceuticals, Inc., priority 2016, published 2018).

System: OE-19 xenograft
Test: Microdistribution in OE-19 esophageal xenograft model
Type: in vivo, mice
Details: 24 h after injection
Experimental: For OE-19 model, NCR nu/nu homozygous athymic male nude mice (5-6 week old) were obtained from Taconic. Five mice per group were inoculated ectopically in the flank with 0.1 mL of the suspension containing 10×10^6 cells suspended in PBS.
In order to test the effect of targeting on liposome microdistribution in vivo, 24 hours before sacrifice, animals were injected with a mixture of EphA2 targeted non drug loaded placebo liposomes and a non-targeted non drug loaded placebo liposomes at dose of 1 micromole/liposome type/animal labeled with two different lipophilic fluorescent dyes DilC18(5)-DS and DilC18(3)-DS, respectively (EphA2-ILs/NT-Ls group) To control for differences in fluorescence between DilC18(5) and DilC15(3), one animal from each model was injected with the a mixture of non-targeted liposomes which should distribute equally in tissue (NT-Ls/NT-Ls group).
A second group of animals was injected with the anti-EphA2 antibody clone 1C1 (SEQ ID NO:39) at 5 mg/kg bw.
Non drug loaded liposomes are prepared by ethanol injection—extrusion method. […] Phospholipid concentration is measured by phosphate assay. Particle diameter is analyzed by dynamic light scattering. […] The ligand inserted liposomes are purified on Sepharose CL-4B column and analyzed by phosphate assay for lipid concentration and SDS-PAGE for antibody quantification. […]

B1: 1C1: EphA2 IgG antibody clone 1C1, SEQ ID NO:39, disclosed in PCT/US06/34894 (protein)
chain: EVQLLESGGGLVQPGGSLRLSCAASGFTFSHYMMAWVRQAPGKGLEWVSRIGPSGGPTHYADSVKGRFTISRDNSKNTLYLQMNSLRAEDTAVYYCAGYDSGYDYVAVAGPAEYFQHWGQGTLVTVSSASTKGPSVFPLAPSSKSTSGGTAALGCLVKDYFPEPVTVSWNSGALTSGVHTFPAVLQSSGLYSLSSVVTVPSSSLGTQTYICNVNHKPSNTKVDKKV[human IgG1 Fc not listed]
modifications: Synthetically Generated Sequence
  biodistribution at the organ level: biodistribute to most analyzed organs in a very diffuse way
  localization in skin: high staining in the epidermis
